# Values of other authors as cited in patent US20100137246A1, “Anti-inflammatory compositions and methods” (Searete LLC, a limited liability corporation of the State …, priority 2008, published 2010).
# Chains of the proteins cited; added tags and fusions are not shown. Residues count along the entry.
# UniProt P10721, 26-976: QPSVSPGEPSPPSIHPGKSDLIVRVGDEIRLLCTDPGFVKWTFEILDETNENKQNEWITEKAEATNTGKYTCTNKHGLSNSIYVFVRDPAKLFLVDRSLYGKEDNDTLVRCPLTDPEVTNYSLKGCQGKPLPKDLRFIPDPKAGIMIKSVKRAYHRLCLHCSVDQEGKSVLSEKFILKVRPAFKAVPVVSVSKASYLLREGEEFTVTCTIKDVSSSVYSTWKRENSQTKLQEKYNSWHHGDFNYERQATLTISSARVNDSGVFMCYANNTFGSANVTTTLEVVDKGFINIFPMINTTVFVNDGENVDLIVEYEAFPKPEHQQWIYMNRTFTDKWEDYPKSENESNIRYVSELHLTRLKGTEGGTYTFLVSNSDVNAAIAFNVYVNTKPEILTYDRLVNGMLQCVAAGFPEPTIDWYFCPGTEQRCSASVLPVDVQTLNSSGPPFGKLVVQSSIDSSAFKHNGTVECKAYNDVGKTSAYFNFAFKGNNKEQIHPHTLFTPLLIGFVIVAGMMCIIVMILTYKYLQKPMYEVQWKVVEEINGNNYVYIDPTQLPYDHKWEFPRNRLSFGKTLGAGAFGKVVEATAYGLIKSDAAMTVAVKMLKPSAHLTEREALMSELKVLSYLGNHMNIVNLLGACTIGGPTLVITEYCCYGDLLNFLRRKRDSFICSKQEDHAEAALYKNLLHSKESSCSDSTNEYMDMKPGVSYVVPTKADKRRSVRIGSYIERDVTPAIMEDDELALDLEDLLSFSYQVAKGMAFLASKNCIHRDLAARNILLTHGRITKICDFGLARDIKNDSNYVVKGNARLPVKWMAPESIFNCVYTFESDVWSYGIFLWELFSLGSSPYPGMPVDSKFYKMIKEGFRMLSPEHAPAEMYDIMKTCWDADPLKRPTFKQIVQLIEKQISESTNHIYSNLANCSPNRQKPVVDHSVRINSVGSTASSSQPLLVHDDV
# UniProt P09619, 33-1106, species assumed: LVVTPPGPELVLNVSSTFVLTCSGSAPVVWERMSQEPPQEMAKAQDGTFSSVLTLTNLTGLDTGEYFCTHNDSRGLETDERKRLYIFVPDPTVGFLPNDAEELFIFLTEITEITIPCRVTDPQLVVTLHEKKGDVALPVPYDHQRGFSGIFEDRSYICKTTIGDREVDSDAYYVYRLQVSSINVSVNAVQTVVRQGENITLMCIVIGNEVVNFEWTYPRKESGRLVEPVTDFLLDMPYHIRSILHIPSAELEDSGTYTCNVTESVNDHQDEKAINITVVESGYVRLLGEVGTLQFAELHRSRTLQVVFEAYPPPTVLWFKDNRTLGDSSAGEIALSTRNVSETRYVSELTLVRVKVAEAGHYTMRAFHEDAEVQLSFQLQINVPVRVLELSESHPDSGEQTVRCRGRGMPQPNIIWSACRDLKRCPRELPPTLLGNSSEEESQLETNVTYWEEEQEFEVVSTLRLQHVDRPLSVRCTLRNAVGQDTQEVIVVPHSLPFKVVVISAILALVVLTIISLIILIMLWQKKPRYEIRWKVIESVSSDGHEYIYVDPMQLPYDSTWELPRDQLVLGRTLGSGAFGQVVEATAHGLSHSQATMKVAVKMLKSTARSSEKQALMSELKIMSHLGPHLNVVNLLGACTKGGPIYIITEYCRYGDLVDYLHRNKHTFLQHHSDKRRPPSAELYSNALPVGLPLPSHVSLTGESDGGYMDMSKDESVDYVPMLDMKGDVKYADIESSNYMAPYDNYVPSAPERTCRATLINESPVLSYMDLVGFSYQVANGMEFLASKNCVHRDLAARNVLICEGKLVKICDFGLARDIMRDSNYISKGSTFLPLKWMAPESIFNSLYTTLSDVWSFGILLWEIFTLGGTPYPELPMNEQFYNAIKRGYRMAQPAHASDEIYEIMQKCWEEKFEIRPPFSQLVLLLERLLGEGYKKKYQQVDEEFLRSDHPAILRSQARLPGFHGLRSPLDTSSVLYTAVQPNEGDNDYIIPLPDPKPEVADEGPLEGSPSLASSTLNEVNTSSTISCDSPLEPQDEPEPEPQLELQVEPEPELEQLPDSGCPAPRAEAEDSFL
# Columns and labels:
# c-Kit = c-Kit (Homo sapiens, UniProt P10721); conditions: at nanomolar concentrations
# PDGFRβ = PDGFRβ (Homo sapiens, UniProt P09619); conditions: at nanomolar concentrations
smiles,measurement,setting,value
"Cc1nc(Nc2ncc(C(=O)Nc3c(C)cccc3Cl)s2)cc(N2CCN(CCO)CC2)n1.O [dasatinib, N-(2-chloro-6-methylphenyl)-2-[[6-[4-(2-hydroxyethyl)-1-piperazinyl]-2-methyl-4-pyrimidinyl]amino]-5-thiazolecarboxamide, monohydrate]",inhibition of c-Kit,c-Kit,inhibits
same,inhibition of PDGFRβ,PDGFRβ,inhibits
